Laboratory results: PMC8624105 (Viruses, 2021)

Tests used:
Test in all cases: holdup assay
Type in all cases: binding, human
SDCBP PDZ2 = conditions: PDZ about 4 μM; two independent experiments
SIPA1L3 PDZ1 = conditions: PDZ about 4 μM; two independent experiments
PDZRN4 PDZ1 = conditions: PDZ about 4 μM; two independent experiments
LIN7B PDZ1 = conditions: PDZ about 4 μM; two independent experiments
PDZD2 PDZ3 = conditions: PDZ about 4 μM; two independent experiments
PDLIM5 PDZ1 = conditions: PDZ about 4 μM; two independent experiments
RAPGEF2 PDZ1 = conditions: PDZ about 4 μM; sd not given
SIPA1L2 PDZ1 = conditions: PDZ about 4 μM; two independent experiments
DLG5 PDZ4 = conditions: PDZ about 4 μM; two independent experiments
ARHGEF11 PDZ1 = conditions: PDZ about 4 μM; two independent experiments
GRID2IP PDZ1 = conditions: PDZ about 4 μM; two independent experiments
GRID2IP PDZ2 = conditions: PDZ about 4 μM; two independent experiments
MAGI2 PDZ2 = conditions: PDZ about 4 μM; two independent experiments
PSCDBP PDZ1 = conditions: PDZ about 4 μM; two independent experiments
RHPN1 PDZ1 = conditions: PDZ about 4 μM; two independent experiments
GRIP2 PDZ1 = conditions: PDZ about 4 μM; two independent experiments
APBA2 PDZ1 = conditions: PDZ about 4 μM; sd not given
LNX2 PDZ2 = conditions: PDZ about 4 μM; two independent experiments
InaDl PDZ6 = conditions: PDZ about 4 μM; two independent experiments
MPP4 PDZ1 = conditions: PDZ about 4 μM; two independent experiments
NHERF4 PDZ2 = conditions: PDZ about 4 μM; two independent experiments
PREX2 PDZ1 = conditions: PDZ about 4 μM; two independent experiments
PARD3B PDZ2 = conditions: PDZ about 4 μM; two independent experiments
DLG4 PDZ2 = conditions: PDZ about 4 μM; two independent experiments
CARD11 PDZ1 = conditions: PDZ about 4 μM; two independent experiments
GIPC1 PDZ1 = conditions: PDZ about 4 μM; two independent experiments
MAST1 = test system: MAST1
PTPN13 PDZ5 = conditions: PDZ about 4 μM; two independent experiments
InaDl PDZ1 = conditions: PDZ about 4 μM; two independent experiments
MPDZ PDZ11 = conditions: PDZ about 4 μM; two independent experiments
DLG3 PDZ2 = conditions: PDZ about 4 μM; two independent experiments
FRMPD1 PDZ1 = conditions: PDZ about 4 μM; two independent experiments
TJP1 PDZ3 = conditions: PDZ about 4 μM; two independent experiments
FRMPD2 PDZ2 = conditions: PDZ about 4 μM; two independent experiments
MPP7 PDZ1 = conditions: PDZ about 4 μM; two independent experiments
NHERF3 PDZ2 = conditions: PDZ about 4 μM; two independent experiments
PTPN13 PDZ3 = conditions: PDZ about 4 μM; two independent experiments
DFNB31 PDZ1 = conditions: PDZ about 4 μM; two independent experiments
MPDZ PDZ5 = conditions: PDZ about 4 μM; two independent experiments
PDLIM1 PDZ1 = conditions: PDZ about 4 μM; two independent experiments
MPDZ PDZ1 2 = conditions: PDZ about 4 μM; two independent experiments
MPP3 PDZ1 = conditions: PDZ about 4 μM; two independent experiments
PTPN13 PDZ2 = conditions: PDZ about 4 μM; two independent experiments
DEPTOR PDZ1 = conditions: PDZ about 4 μM; sd not given
PTPN3 = test system: PTPN3
DLG5 PDZ3 = conditions: PDZ about 4 μM; two independent experiments
GRIP1 PDZ1 = conditions: PDZ about 4 μM; two independent experiments
ARHGEF12 PDZ1 = conditions: PDZ about 4 μM; two independent experiments
SNTB2 PDZ1 = conditions: PDZ about 4 μM; two independent experiments
ARHGAP21 PDZ1 = conditions: PDZ about 4 μM; two independent experiments
STXB4 PDZ1 = conditions: PDZ about 4 μM; two independent experiments
[1] = PDZ about 4 μM, two independent experiments
[2] = converted from BI, PDZ typically 4 μM, immobilized peptide 21 μM, listed as PBM peptide from ACE2 protein, read-out: Kd estimated

Substance: Biotin-(PEG3)-GFQNTDDVQTSF [ACE2 PBM peptide]
- BI (binding intensity) (SDCBP PDZ2): -0.09
- BI (binding intensity) (SIPA1L3 PDZ1): -0.05
- BI (binding intensity) (PDZRN4 PDZ1): -0.05
- BI (binding intensity) (LIN7B PDZ1): -0.01
- BI (binding intensity) (PDZD2 PDZ3): -0.03
- BI (binding intensity) (PDLIM5 PDZ1): -0.08
- BI (binding intensity) (RAPGEF2 PDZ1): -0.06
- BI (binding intensity) (SIPA1L2 PDZ1): -0.03
- BI (binding intensity) (DLG5 PDZ4): -0.01
- BI (binding intensity) (ARHGEF11 PDZ1): -0.18
- BI (binding intensity) (GRID2IP PDZ1): -0.03
- BI (binding intensity) (GRID2IP PDZ2): 0.14
- BI (binding intensity) (MAGI2 PDZ2): -0.03
- BI (binding intensity) (PSCDBP PDZ1): 0.01
- BI (binding intensity) (RHPN1 PDZ1): 0.16
- BI (binding intensity) (GRIP2 PDZ1): -0.11
- BI (binding intensity) (APBA2 PDZ1): -0.03
- BI (binding intensity) (LNX2 PDZ2): -0.01
- BI (binding intensity) (InaDl PDZ6): -0.03
- BI (binding intensity) (MPP4 PDZ1): -0.02
- BI (binding intensity) (NHERF4 PDZ2): -0.06
- BI (binding intensity) (PREX2 PDZ1): -0.11
- BI (binding intensity) (PARD3B PDZ2): -0.07
- BI (binding intensity) (DLG4 PDZ2): -0.02
- BI (binding intensity) (CARD11 PDZ1): 0.01
- BI (binding intensity) (GIPC1 PDZ1): 0.12
- BI (binding intensity) (MAST1; [1]): 0.63
- Kd (MAST1; [2]): 10.7 µM
- BI (binding intensity) (PTPN13 PDZ5): -0.05
- BI (binding intensity) (InaDl PDZ1): -0.34
- BI (binding intensity) (MPDZ PDZ11): -0.05
- BI (binding intensity) (DLG3 PDZ2): -0.27
- BI (binding intensity) (FRMPD1 PDZ1): -0.03
- BI (binding intensity) (TJP1 PDZ3): -0.14
- BI (binding intensity) (FRMPD2 PDZ2): -0.07
- BI (binding intensity) (MPP7 PDZ1): -0.04
- BI (binding intensity) (NHERF3 PDZ2): 0.05
- BI (binding intensity) (PTPN13 PDZ3): -0.02
- BI (binding intensity) (DFNB31 PDZ1): 0.09
- BI (binding intensity) (MPDZ PDZ5): -0.05
- BI (binding intensity) (PDLIM1 PDZ1): 0.04
- BI (binding intensity) (MPDZ PDZ1 2): -0.05
- BI (binding intensity) (MPP3 PDZ1): -0.04
- BI (binding intensity) (PTPN13 PDZ2): -0.09
- BI (binding intensity) (DEPTOR PDZ1): -0.01
- BI (binding intensity) (PTPN3; [1]): 0.54
- Kd (PTPN3; [2]): 16.2 µM
- BI (binding intensity) (DLG5 PDZ3): -0.06
- BI (binding intensity) (GRIP1 PDZ1): -0.01
- BI (binding intensity) (ARHGEF12 PDZ1): 0.04
- BI (binding intensity) (SNTB2 PDZ1): -0.08
- BI (binding intensity) (ARHGAP21 PDZ1): 0.09
- BI (binding intensity) (STXB4 PDZ1): -0.03
